Measurements reported in patent US10550118B2, “JAK inhibitors containing a 4-membered heterocyclic amide” (THERAVANCE BIOPHARMA R&D IP, LLC, priority 2017, dated 2020).

Test system: IL-13 induced pSTAT6 in lung tissue
Assay: Murine model of IL-13 induced pSTAT6 induction in lung tissue
Conditions: mouse, 1 mg/mL 50 μL oral aspiration; IL-13 challenge 4 h post dose; lungs at 5 hours

SMILES	pSTAT6 inhibition Assay 4
CCCN1Cc2[nH]c(-c3n[nH]c4cc(-c5cc(F)c(O)cc5CC)ccc34)nc2CC1C(=O)N1CC(N(C)C)C1 (centres unmarked)	B (B represents between 40% and 60% inhibition)
CCCN1Cc2[nH]c(-c3n[nH]c4cc(-c5cc(F)c(O)cc5CC)ccc34)nc2C[C@@H]1C(=O)N1CC(N(C)C)C1	B (B represents between 40% and 60% inhibition)
